From PubChem BioAssay (NCI)
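Growth conditions: 96-well plates. Treatment: test compound, 48 hours, 5 concentrations. Analysis: linear interpolation between bracketing concentrations; unreached endpoints set to highest concentration. The concentration for 50% growth inhibition is given as GI50. TGI marks complete inhibition of growth.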

Assays:
Assay in all cases: DTP human tumour cell line panel, 48 h
786-0 renal = system: 786-0 renal
A498 renal = system: A498 renal
A549 NSCLC = system: A549 NSCLC
ACHN renal = system: ACHN renal
BT-549 breast = system: BT-549 breast
CAKI-1 renal = system: CAKI-1 renal
CCRF-CEM leukemia = system: CCRF-CEM leukemia
COLO 205 colon = system: COLO 205 colon
DU-145 prostate = system: DU-145 prostate
EKVX NSCLC = system: EKVX NSCLC
HCC-2998 colon = system: HCC-2998 colon
HCT-116 colon = system: HCT-116 colon
HCT-15 colon = system: HCT-15 colon
HL-60(TB) leukemia = system: HL-60(TB) leukemia
HOP-62 NSCLC = system: HOP-62 NSCLC
HOP-92 NSCLC = system: HOP-92 NSCLC
HS 578T breast = system: HS 578T breast
HT29 colon = system: HT29 colon
IGROV1 ovarian = system: IGROV1 ovarian
K-562 leukemia = system: K-562 leukemia
KM12 colon = system: KM12 colon
LOX IMVI melanoma = system: LOX IMVI melanoma
M14 melanoma = system: M14 melanoma
MALME-3M melanoma = system: MALME-3M melanoma
MCF7 breast = system: MCF7 breast
MDA-MB-231 breast = system: MDA-MB-231 breast
MDA-MB-435 = system: MDA-MB-435
MDA-N = system: MDA-N
MOLT-4 leukemia = system: MOLT-4 leukemia
NCI-H226 lung = system: NCI-H226 lung

In the case of `CCCCCCCCCCCCCCCC[C@@H]1C[N+](C)(C)CCO[P@](C)(=O)O1`, the GI50 (786-0 renal) is reported as 13.1 µM, the TGI (786-0 renal) is reported as 25.8 µM and the GI50 (A498 renal) is reported as 12 µM. For the same compound, the TGI (A498 renal) was 24.7 µM, the GI50 (A549 NSCLC) was 12.4 µM and the TGI (A549 NSCLC) was 27.5 µM. It also gave a GI50 (ACHN renal) of 11.8 µM, a TGI (ACHN renal) of 24.1 µM and a GI50 (BT-549 breast) of 14.5 µM. For the same compound, the TGI (BT-549 breast) was 29.5 µM, the GI50 (CAKI-1 renal) was 11.4 µM and the TGI (CAKI-1 renal) was 23.9 µM. It also gave a GI50 (CCRF-CEM leukemia) of 5.5 µM, a TGI (CCRF-CEM leukemia) of 19.6 µM and a GI50 (COLO 205 colon) of 9.55 µM. The TGI (COLO 205 colon) was 21.7 µM, the GI50 (DU-145 prostate) was 11.2 µM and the TGI (DU-145 prostate) was 23.4 µM. The GI50 (EKVX NSCLC) was 14.2 µM, the TGI (EKVX NSCLC) was 28.4 µM and the GI50 (HCC-2998 colon) was 4.88 µM. The TGI (HCC-2998 colon) was 18.1 µM, the GI50 (HCT-116 colon) was 5 µM and the TGI (HCT-116 colon) was 21.2 µM. For the same compound, the GI50 (HCT-15 colon) was 10 µM, the TGI (HCT-15 colon) was 22.6 µM and the GI50 (HL-60(TB) leukemia) was 1.54 µM. For the same compound, the TGI (HL-60(TB) leukemia) was 3.56 µM, the GI50 (HOP-62 NSCLC) was 15.7 µM and the TGI (HOP-62 NSCLC) was 30 µM. It also gave a GI50 (HOP-92 NSCLC) of 6.86 µM, a TGI (HOP-92 NSCLC) of 27 µM and a GI50 (HS 578T breast) of 4.35 µM. For the same compound, the TGI (HS 578T breast) was 35.2 µM, the GI50 (HT29 colon) was 4.7 µM and the TGI (HT29 colon) was 16.6 µM. For the same compound, the GI50 (IGROV1 ovarian) was 3.79 µM, the TGI (IGROV1 ovarian) was 15.8 µM and the GI50 (K-562 leukemia) was 6.37 µM. The TGI (K-562 leukemia) was 24 µM, the GI50 (KM12 colon) was 10.7 µM and the TGI (KM12 colon) was 22.8 µM. The GI50 (LOX IMVI melanoma) was 6.19 µM, the TGI (LOX IMVI melanoma) was 19.4 µM and the GI50 (M14 melanoma) was 7.34 µM. It also gave a TGI (M14 melanoma) of 20.5 µM, a GI50 (MALME-3M melanoma) of 13.1 µM and a TGI (MALME-3M melanoma) of 26 µM. It also gave a GI50 (MCF7 breast) of 10.7 µM, a TGI (MCF7 breast) of 23.9 µM and a GI50 (MDA-MB-231 breast) of 15.2 µM. It also gave a TGI (MDA-MB-231 breast) of 30 µM, a GI50 (MDA-MB-435) of 14.3 µM and a TGI (MDA-MB-435) of 27.8 µM. It also gave a GI50 (MDA-N) of 13 µM, a TGI (MDA-N) of 26.3 µM and a GI50 (MOLT-4 leukemia) of 3.81 µM. The TGI (MOLT-4 leukemia) was 14.9 µM, the GI50 (NCI-H226 lung) was 15 µM and the TGI (NCI-H226 lung) was 33.8 µM.
